{
  "source": "patent US11046753B2",
  "about": "“Antibody composition and buffer system therefor” (INNOVA BIOSCIENCES LTD, priority 2013, dated 2021)",
  "experiment": "Degree of ionisation of the acid group at pH 5 (Henderson-Hasselbach)",
  "type": "physicochemical",
  "note": "“And” between values parts separate entries of the source, which are not always exact repeats. Identical values can stand only once.",
  "data": [
    {"substance": "Glycine", "values": [
      {"measurement": "acid groups ionised (COO−)", "value": "99.78% and ~99.8%"}
    ]}
  ]
}
